Data from patent publication US8309730B2, “Nonsteroidal compounds useful as modulators of glucocorticoid receptor AP-1 and/or NF-kappab acitivity and use thereof” (Bristol-Myers Squibb Company, priority 2007, dated 2012).

Protein sequences, listed by entry. Tags and fused reporters are not part of them.
UniProt P04150, whole entry: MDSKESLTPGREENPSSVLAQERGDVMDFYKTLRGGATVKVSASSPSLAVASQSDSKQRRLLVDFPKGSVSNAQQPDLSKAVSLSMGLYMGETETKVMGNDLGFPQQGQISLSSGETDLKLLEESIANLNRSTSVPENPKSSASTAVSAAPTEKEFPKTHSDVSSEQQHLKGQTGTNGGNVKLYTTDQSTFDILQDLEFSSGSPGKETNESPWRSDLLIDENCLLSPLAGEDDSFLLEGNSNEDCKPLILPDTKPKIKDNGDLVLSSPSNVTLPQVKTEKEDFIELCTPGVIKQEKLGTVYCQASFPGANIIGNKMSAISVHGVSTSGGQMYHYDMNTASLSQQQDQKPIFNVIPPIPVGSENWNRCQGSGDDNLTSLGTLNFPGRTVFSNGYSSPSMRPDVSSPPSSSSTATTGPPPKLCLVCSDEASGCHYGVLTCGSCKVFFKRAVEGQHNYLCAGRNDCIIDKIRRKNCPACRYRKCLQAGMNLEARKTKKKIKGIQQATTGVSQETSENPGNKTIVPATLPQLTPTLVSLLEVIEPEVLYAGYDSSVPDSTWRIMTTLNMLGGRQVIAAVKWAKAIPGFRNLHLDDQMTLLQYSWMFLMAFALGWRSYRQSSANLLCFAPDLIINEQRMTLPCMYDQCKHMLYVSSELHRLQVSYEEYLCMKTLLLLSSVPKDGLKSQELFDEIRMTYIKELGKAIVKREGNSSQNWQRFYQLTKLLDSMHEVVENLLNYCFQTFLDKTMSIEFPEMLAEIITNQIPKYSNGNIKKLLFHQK

Target: human glucocorticoid receptor (Homo sapiens, UniProt P04150)
Assay: Glucocorticoid Receptor Binding Assay (I), fluorescence polarization competitor kit
Conditions: read-out: GR (Ki, nM) (GR Binding Assay (I)); purified human recombinant full-length GR, Fluormone GS Red, 2 h room temperature

SMILES: CC(O)(c1ccccc1CN1CCCC1)[C@H]1CCCC2=Cc3c(-c4ccc(F)cc4)ncn3C[C@@]21C (some centres unmarked)
- Ki: 87.1 nM

SMILES: C[C@]12Cn3cnc(-c4ccc(F)cc4)c3C=C1CCC[C@@H]2CCNc1nccs1
- Ki: 38.3 nM
